“And” between values parts separate entries of the source, which are not always exact repeats. Identical values can stand only once. The list shows a part of the results, in another mix than the full data. Results filed as inconclusive are left out. The source made the active and inactive calls. The call rests on the fitted dose curve; in most records, active means well fitted inhibition curve with a large enough effect; inconclusive means small, poorly fitted or top-dose-only effect, or another doubt; inactive means no such curve, though single readings can be large or run the other way.
These compounds were tested against Vitamin D3 receptor (Homo sapiens) (UniProt P11473) (assay: Inhibitors of the vitamin D receptor (VDR): qHTS). Conditions: VDR-SRC2-3 peptide fluorescence polarization, 2 h; max response, negative = inhibition: hits give low values.
On the % scale 0 is the no-effect control and ±100 the full control effect.

By UniProt entry, the sequences of proteins in these tests, tags left out.
UniProt P11473, whole entry: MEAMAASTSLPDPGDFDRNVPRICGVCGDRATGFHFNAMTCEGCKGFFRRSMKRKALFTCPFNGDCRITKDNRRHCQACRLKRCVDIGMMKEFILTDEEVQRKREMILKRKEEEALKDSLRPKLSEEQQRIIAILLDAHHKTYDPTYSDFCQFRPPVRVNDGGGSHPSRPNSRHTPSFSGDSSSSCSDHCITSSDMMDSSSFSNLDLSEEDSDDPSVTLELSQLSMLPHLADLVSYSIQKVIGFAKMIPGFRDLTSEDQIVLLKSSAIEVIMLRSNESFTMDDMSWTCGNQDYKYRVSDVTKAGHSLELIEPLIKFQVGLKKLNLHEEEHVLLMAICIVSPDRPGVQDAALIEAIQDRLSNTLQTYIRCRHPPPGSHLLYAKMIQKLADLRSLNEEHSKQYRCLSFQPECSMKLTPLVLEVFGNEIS

Row | Structure (SMILES) | max response, negative = inhibition
1 | CP(=O)(Nc1ccc2c(c1)OCCO2)Oc1ccccc1 (stereo unspecified) | inactive: -3.98%
2 | C[C@H]1OP(=O)(Oc2ccccc2)[C@H](O)[C@H](O)[C@H]1N=[N+]=[N-] (stereo partly specified) | inactive: -15.1%
3 | O=P(Nc1nc2ccccc2s1)(c1ccccc1)c1ccccc1 | inactive: -8.94%
4 | CN(C)CCOC(=O)C(O)(c1ccccc1)C1CCCCC1 (stereo unspecified) | inactive: -1.17%
5 | CN(C(=O)Cc1ccccc1)[C@H]1CC[C@@]2(CCCO2)C[C@@H]1N1CCCC1 | inactive: 5.56%
6 | COc1ccc(N)c([N+](=O)[O-])c1[N+](=O)[O-] | inactive: -2.29%
7 | COc1ccc(OP(C)(=O)Nc2cccc(Br)c2)cc1 (stereo unspecified) | inactive: 1.14%
8 | CN(C)C1(CNC(=O)c2ccc(Cl)c(S(N)(=O)=O)c2)CCCCC1 | inactive: -4.96%
9 | O=P(Nc1ccccn1)(c1ccc(Br)cc1)c1ccc(Br)cc1 | inactive: -10%
10 | C(Cc1nn[nH]n1)Cc1nn[nH]n1 | inactive: -18%
11 | Nc1ccc([As](=O)(O)c2ccc([N+](=O)[O-])cc2)cc1 | inactive: 4.41%
12 | Cc1c(C(c2ccc3c(c2)OCO3)c2c(C)n(C)n(-c3ccccc3)c2=O)c(=O)n(-c2ccccc2)n1C.O=[N+]([O-])c1cc([N+](=O)[O-])c(O)c([N+](=O)[O-])c1 | inactive: -1.06%
13 | O=C(OC1CN2CCC1CC2)c1cccc(Cl)c1 (stereo unspecified) | inactive: -4.37%
14 | O=[N+]([O-])c1ccc(OP2(=O)COCCO2)cc1 (stereo unspecified) | inactive: 7.11%
15 | CC(=O)NC(SC(=S)N(C)C)C(Cl)(Cl)Cl (stereo unspecified) | inactive: -15.4%
16 | O=[N+]([O-])c1ncn(CCn2cnc([N+](=O)[O-])n2)n1 | inactive: -9.25%
17 | O=[N+]([O-])c1ccc(O)c(/C=N/Nc2ccc([N+](=O)[O-])cc2[N+](=O)[O-])c1 | inactive: -14.8%
18 | Cc1cc(-c2cccc3ccccc23)c(C)cn1.O=[N+]([O-])c1cc([N+](=O)[O-])c(O)c([N+](=O)[O-])c1 | inactive: -2.19%
19 | O=[As](O)(c1ccccc1)c1ccc(O)cc1 | inactive: 8.48%
20 | O=C(Nc1cc([As](=O)(O)O)ccc1O)c1ccccc1 | inactive: -10.1%
21 | CCOC(=O)c1ccc(NP(C)(=O)Oc2ccc(Cl)cc2)cc1 (stereo unspecified) | inactive: -16.5%
22 | CP(=O)(OC12CC3CC(CC(C3)C1)C2)OC12CC3CC(CC(C3)C1)C2 | inactive: -1.87%
23 | Nc1ccc2c(ccc3cccnc32)n1.O=[N+]([O-])c1cc([N+](=O)[O-])c(O)c([N+](=O)[O-])c1 | inactive: -12.6%
24 | O=P1(N(CCCl)CCCl)OCCCS1 (stereo unspecified) | inactive: 33.7%

Row | Structure (SMILES) | max response, negative = inhibition
25 | COC(=O)C1(C)COP(=O)(Nc2ccccc2)OC1 (stereo unspecified) | inactive: 5.62%
26 | C/C1=C2N=C(/C=C3N=C(/C(C)=C4\[N-][C@@](C)([C@H]5N=C1[C@@](C)(CCC(=O)NC[C@H](C)OP(=O)([O-])O[C@@H]1[C@H](O)[C@H](n6cnc7cc(C)c(C)cc76)O[C@@H]1CO)[C@@H]5CC(N)=O)[C@](C)(CC(N)=O)[C@H]4CCC(N)=O)[C@@](C)(CC(N)=O)[C@@H]\3CCC(N)=O)C(C)(C)[C@@H]/2CCC(N)=O.[C-]#N.[Co+3] | inactive: -4.97%
27 | O=C(O)CNc1ccc([As](=O)(O)O)cc1 | inactive: 4.07%
28 | CC(C)(C)C(=O)NC(Sc1ccncn1)C(Cl)(Cl)Cl (stereo unspecified) | inactive: -19.5%
29 | O=[N+]([O-])c1ncn(CCn2ncnc2[N+](=O)[O-])n1 | inactive: 16.9%
30 | OCCSCCO | inactive: -0.861%
31 | COc1ccccc1OP(C)(=O)Nc1c(C)n(C)n(-c2ccccc2)c1=O (stereo unspecified) | inactive: 3.26%
32 | CCc1ccc(OP(C)(=O)Nc2cccnc2)cc1 (stereo unspecified) | inactive: -2.18%
33 | Cc1ccc(NP(=O)(Oc2ccccc2)Oc2ccccc2)nc1 | inactive: -13.6%
34 | CP(=O)(Oc1ccccc1)N1CCOC1=O (stereo unspecified) | inactive: -0.212%
35 | CCN(CC)CC(O)COC(=O)C(O)(c1ccccc1)C1CCCCC1 (stereo unspecified) | inactive: -23.2%
36 | CN(C)C(=O)OCCc1n(C)cc[n+]1C | inactive: -20.6%
37 | CC(C)=N/N=C(\N)N[N+](=O)[O-] | inactive: 3.59%
38 | CN(C)C(=O)c1c([N+](=O)[O-])cc([N+](=O)[O-])cc1[N+](=O)[O-] | inactive: -21.4%
39 | CC(=O)C1=CCCC2CCC1N2 (stereo unspecified) | inactive: 0.104% and inactive: -14%
40 | CC1CCN(C(=O)Oc2c(Cl)cc(Cl)c3cccnc23)CC1 | inactive: -4.69%
41 | COc1ccccc1OP(C)(=O)Nc1ccccc1Br (stereo unspecified) | inactive: 17.9%
42 | Nc1ccc([As](=O)(O)c2ccc(N)cc2)cc1 | inactive: 6.11%
43 | CC(C)(C)c1ccc(OP(C)(=O)O)cc1 | inactive: -1.9%
44 | CP(=O)(Nc1ccc(Cl)cc1)Oc1ccc(F)cc1 (stereo unspecified) | inactive: 2.05%
45 | CCN(/C(=N/P(=O)(N1CCOCC1)N1CCOCC1)N1CCOCC1)c1ccc(OC)cc1 | inactive: -13.8%
46 | Cc1ccc(OP(=O)(Nc2nccs2)Oc2ccc(C)cc2)cc1 | inactive: -17.4%
47 | COc1ccccc1OP(=O)(Nc1ccc(C)cn1)Oc1ccccc1OC | inactive: 1.97%
48 | COc1ccc(OP(C)(=O)Nc2ccccn2)cc1 (stereo unspecified) | inactive: -11.6%

Row | Structure (SMILES) | max response, negative = inhibition
49 | CN1CCCC(OC(=O)C(c2ccccc2)c2ccccc2)C1 (stereo unspecified) | inactive: 5.27%
50 | CN(C)CCOC(=O)C(O)(c1ccccc1)C1CCCC1 (stereo unspecified) | inactive: 0.301%
51 | Clc1ccc(Cl)c(NC2=NCC(CBr)S2)c1 (stereo unspecified) | inactive: -1.8%
52 | NC(=O)c1cc([N+](=O)[O-])cc([N+](=O)[O-])c1N | inactive: -3.67%
53 | COc1ccccc1OP(C)(=O)Nc1ccc(Br)cc1 (stereo unspecified) | inactive: 5.69%
54 | COc1ccccc1OP(C)(=O)Nc1ccc(C)cc1C (stereo unspecified) | inactive: -21.5%
55 | CP(=O)(Nc1ccccn1)Oc1ccccc1 (stereo unspecified) | inactive: 0.105%
56 | CCc1ccc(OP(C)(=O)O)cc1 | inactive: 3.94%
57 | Nc1cc(N)c2nonc2c1[N+](=O)[O-] | inactive: -18.1%
58 | Cc1c(NP(C)(=O)Oc2ccc(C(C)C)cc2)c(=O)n(-c2ccccc2)n1C (stereo unspecified) | inactive: -19.6%
59 | CC(C)CC(=O)NC(Sc1ccc(Cl)cc1)C(Cl)(Cl)Cl (stereo unspecified) | inactive: -3.11%
60 | Oc1ccccc1CNc1ccccn1 | inactive: -3.17%
61 | COc1ccccc1OP(C)(=O)Nc1ccc(C)c(C)c1 (stereo unspecified) | inactive: -3.39%
62 | Cc1ccc(NP(=O)(Oc2ccccc2F)Oc2ccccc2F)nc1 | inactive: -1.18%
63 | CCOP(=O)(Nc1ccccc1)OCC | inactive: 6.16%
64 | COc1ccc(OP(C)(=O)Nc2ccccc2Br)cc1 (stereo unspecified) | inactive: -2%
65 | CCCC1OP(N)(=O)OCC1CC (stereo unspecified) | inactive: 4.96%
66 | CC(=O)Nc1ccc([As](=O)(O)O)cc1 | inactive: -21.1%
67 | O=P(Nc1nc2ccc(Cl)cc2s1)(c1ccccc1)c1ccccc1 | inactive: 5.56%
68 | CCN(N=Nc1nonc1N)c1nonc1N | inactive: -5.73%
69 | CP(=O)(Nc1ccc(Cl)cc1Cl)Oc1ccccc1 (stereo unspecified) | inactive: 25.8%
70 | CCCCCCCCCCCCCCCC1C[N+](C)(C)CCOP(C)(=O)O1 (stereo unspecified) | inactive: -15%
71 | Nc1cccc2ccc([As](=O)(O)O)cc12 | inactive: -18.2%

From PubChem BioAssay AID504847 (National Center for Advancing Translational Sciences (NCATS), 2011)
